US6294153A, “Aerosol pharmaceutical formulation for pulmonary and nasal delivery” (Generex Pharmaceuticals, Inc., priority 1999, dated 2001)

How the values were obtained:
[1] = healthy volunteers
Description: Day-1: 5 puffs of 2 units each (total 10 units)
Day-2: 5 puffs of 4 units each (total 20 units)
Day-1: 5 puffs of 6 units each (total 30 units)

[2] = Description: (§1) The vials were then charged with a non-CFC tetrafluoroethane, (134a) propellant with the aid of a Pamasol 2008 semi-automatic gas filling equipment.
[3] = remark: listed apart in the source
Experimental: as §1
The aerodynamic particle size was determined by 8-stage USP Anderson Cascade Impactor-Mark-II (trade mark). The Multistage Cascade Impactor was cleaned with methanol and air-dried at 30° C. Glass fibre filters were placed on the collection plates. Seals were aligned properly and the actuator was attached to the mouthpiece and assembled onto the USP induction port and jet stages. A vacuum pump was connected and air flow rate is set to 28.3 liter/min. The vial was primed by shaking for 10 seconds and actuating twice to waste. […] […] The filters were carefully removed and placed in scintillation vials and sonicated for 15 minutes.

[4] = stage 3, U400, 4 units/actuation
[5] = stage 4, U400, 4 units/actuation
[6] = stage 5, U400, 4 units/actuation
[7] = stage 6, U400, 4 units/actuation
[8] = stage 7, U400, 4 units/actuation
[9] = stage 8, U400, 4 units/actuation

Substance: insulin
- Plasma insulin level ([1]; Day-1, 10 units (5 puffs of 2 units), 15 min): 56 pmol/L
- Plasma insulin level ([1]; Day-1, 10 units (5 puffs of 2 units), 30 min): 89 pmol/L
- Plasma insulin level ([1]; Day-1, 10 units (5 puffs of 2 units), 45 min): 119 pmol/L
- Plasma insulin level ([1]; Day-1, 10 units (5 puffs of 2 units), 60 min): 160 pmol/L
- Plasma insulin level ([1]; Day-1, 10 units (5 puffs of 2 units), 75 min): 160 pmol/L
- Plasma insulin level ([1]; Day-1, 10 units (5 puffs of 2 units), 90 min): 142 pmol/L
- Plasma insulin level ([1]; Day-1, 10 units (5 puffs of 2 units), 120 min): 78 pmol/L
- Plasma insulin level ([1]; Day-1, 10 units (5 puffs of 2 units), 150 min): 62 pmol/L
- Plasma insulin level ([1]; Day-1, 10 units (5 puffs of 2 units), 180 min): 37 pmol/L
- Plasma insulin level ([1]; Day-1, 10 units (5 puffs of 2 units), time 0): 35 pmol/L
- Plasma insulin level ([1]; Day-2, 20 units (5 puffs of 4 units), 15 min): 62 pmol/L
- Plasma insulin level ([1]; Day-2, 20 units (5 puffs of 4 units), 30 min): 97 pmol/L
- Plasma insulin level ([1]; Day-2, 20 units (5 puffs of 4 units), 45 min): 138 pmol/L
- Plasma insulin level ([1]; Day-2, 20 units (5 puffs of 4 units), 60 min): 178 pmol/L
- Plasma insulin level ([1]; Day-2, 20 units (5 puffs of 4 units), 75 min): 175 pmol/L
- Plasma insulin level ([1]; Day-2, 20 units (5 puffs of 4 units), 90 min): 157 pmol/L
- Plasma insulin level ([1]; Day-2, 20 units (5 puffs of 4 units), 120 min): 112 pmol/L
- Plasma insulin level ([1]; Day-2, 20 units (5 puffs of 4 units), 150 min): 87 pmol/L
- Plasma insulin level ([1]; Day-2, 20 units (5 puffs of 4 units), 180 min): 49 pmol/L
- Plasma insulin level ([1]; Day-2, 20 units (5 puffs of 4 units), time 0): 38 pmol/L
- Plasma insulin level ([1]; Day-3, 30 units (5 puffs of 6 units), 15 min): 72 pmol/L
- Plasma insulin level ([1]; Day-3, 30 units (5 puffs of 6 units), 30 min): 112 pmol/L
- Plasma insulin level ([1]; Day-3, 30 units (5 puffs of 6 units), 45 min): 178 pmol/L
- Plasma insulin level ([1]; Day-3, 30 units (5 puffs of 6 units), 60 min): 202 pmol/L
- Plasma insulin level ([1]; Day-3, 30 units (5 puffs of 6 units), 75 min): 190 pmol/L
- Plasma insulin level ([1]; Day-3, 30 units (5 puffs of 6 units), 90 min): 173 pmol/L
- Plasma insulin level ([1]; Day-3, 30 units (5 puffs of 6 units), 120 min): 141 pmol/L
- Plasma insulin level ([1]; Day-3, 30 units (5 puffs of 6 units), 150 min): 92 pmol/L
- Plasma insulin level ([1]; Day-3, 30 units (5 puffs of 6 units), 180 min): 67 pmol/L
- Plasma insulin level ([1]; Day-3, 30 units (5 puffs of 6 units), time 0): 42 pmol/L
- Shot Weight ([2]; U400, 4 units per actuation, shot number 10): 0.078 g
- Shot Weight ([2]; U400, 4 units per actuation, shot number 15): 0.083 g
- Shot Weight ([2]; U400, 4 units per actuation, shot number 20): 0.076 g
- Shot Weight ([2]; U400, 4 units per actuation, shot number 25): 0.079 g
- Shot Weight ([2]; U400, 4 units per actuation, shot number 30): 0.070 g
- Shot Weight ([2]; U600, 6 units per actuation, shot number 10): 0.17 g
- Shot Weight ([2]; U600, 6 units per actuation, shot number 20): 0.18 g
- Shot Weight ([2]; U600, 6 units per actuation, shot number 30): 0.182 g
- Shot Weight ([2]; U600, 6 units per actuation, shot number 40): 0.174 g
- Shot Weight ([2]; U600, 6 units per actuation, shot number 70): 0.177 g
- Particle size ([3]; stage 3, 2 units/actuation): 4.0 μm
- Particle size [3, 4]: 3.8 μm
- units/Actuation [3, 4]: 4.0 units/Actuation
- Particle size ([3]; stage 4, 2 units/actuation): 3.8 μm
- units/Actuation ([3]; stage 4, 2 units/actuation): 2.0 units/Actuation
- Particle size [3, 5]: 3.3 μm
- units/Actuation [3, 5]: 4.0 units/Actuation
- Particle size ([3]; stage 5, 2 units/actuation): 3.0 μm
- units/Actuation ([3]; stage 5, 2 units/actuation): 2.0 units/Actuation
- Particle size [3, 6]: 3.0 μm
- units/Actuation [3, 6]: 4.0 units/Actuation
- Particle size ([3]; stage 6, 2 units/actuation): 2.1 μm
- units/Actuation ([3]; stage 6, 2 units/actuation): 2.0 units/Actuation
- Particle size [3, 7]: 2.0 μm
- units/Actuation [3, 7]: 4.0 units/Actuation
- Particle size ([3]; stage 7, 2 units/actuation): 1.0 μm
- units/Actuation ([3]; stage 7, 2 units/actuation): 2.0 units/Actuation
- Particle size [3, 8]: 1.0 μm
- units/Actuation [3, 8]: 4.0 units/Actuation
- Particle size ([3]; stage 8, 2 units/actuation): 0.7 μm
- units/Actuation ([3]; stage 8, 2 units/actuation): 2.0 units/Actuation
- Particle size [3, 9]: 0.6 μm
- units/Actuation [3, 9]: 4.0 units/Actuation

Where two headings read alike, the source gives them in different places.
